# Measured values as given in patent US8569292B2, “Cyclic inhibitors of 11β-hydroxysteroid dehydrogenase 1” (Vitae Pharmaceuticals, Inc., priority 2008, dated 2013).
# Amino acid sequences for entries named in this document (tags omitted). A change or cut given only in a name is not applied to a line headed by its entry.
# UniProt P28845: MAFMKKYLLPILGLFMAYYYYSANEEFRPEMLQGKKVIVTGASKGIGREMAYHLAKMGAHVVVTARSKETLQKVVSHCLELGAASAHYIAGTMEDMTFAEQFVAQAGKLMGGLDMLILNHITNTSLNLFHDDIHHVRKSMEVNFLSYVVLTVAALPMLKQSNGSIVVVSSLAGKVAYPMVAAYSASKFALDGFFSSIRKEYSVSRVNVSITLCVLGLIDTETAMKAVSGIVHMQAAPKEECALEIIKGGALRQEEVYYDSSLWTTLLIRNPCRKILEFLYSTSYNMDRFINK
# UniProt P11712, whole entry: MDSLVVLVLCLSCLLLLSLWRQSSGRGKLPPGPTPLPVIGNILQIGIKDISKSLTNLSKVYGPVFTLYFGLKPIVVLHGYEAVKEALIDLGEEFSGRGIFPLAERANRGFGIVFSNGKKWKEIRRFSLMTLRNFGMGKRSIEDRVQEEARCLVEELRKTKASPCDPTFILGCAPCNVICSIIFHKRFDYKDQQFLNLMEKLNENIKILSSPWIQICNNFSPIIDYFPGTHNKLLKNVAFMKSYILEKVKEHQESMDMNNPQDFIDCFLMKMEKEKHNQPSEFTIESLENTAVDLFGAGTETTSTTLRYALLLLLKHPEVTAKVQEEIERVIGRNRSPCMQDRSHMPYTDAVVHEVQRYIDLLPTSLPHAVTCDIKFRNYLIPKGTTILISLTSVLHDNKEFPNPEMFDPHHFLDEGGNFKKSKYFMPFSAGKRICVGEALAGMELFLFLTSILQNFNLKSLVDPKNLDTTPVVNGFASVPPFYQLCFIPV
# pIC50: −log10 of the molar value.
# What was measured:
# 11β-HSD1 [1] = molecular target: T1, 11β-HSD1 (Homo sapiens, UniProt P28845); test: Biological Test Example 4: microsomal 11β-HSD1 in the presence of 50% human plasma
# 11β-HSD1 [2] = molecular target: T1, 11β-HSD1; test: biochemical
# CYP2C9 = CYP2C9 (Homo sapiens, UniProt P11712); test: biochemical
Structure (SMILES),pIC50 (11β-HSD1 [1]),Shift (11β-HSD1 [1]; IC50 in Test Example 4 divided by IC50 in Test Example 1),IC50 (11β-HSD1 [2]; Biological Test Example 1 IC50 (nM)) [nM],"pIC50 (11β-HSD1 [2]; IC50 Range, Biological Test Example 1)",pIC50 (CYP2C9)
"C[C@@H](c1ccc(-c2cccnc2)cc1)N1CC[C@](CCNS(C)(=O)=O)(c2ccccc2)OC1=O [EXAMPLE 55, N-(2-((S)-2-oxo-6-phenyl-3-((S)-1-(4-(pyridin-3-yl)phenyl)ethyl)-1,3-oxazinan-6-yl)ethyl)methanesulfonamide]",8.08,5.6,1.5,> 7.00,
"C[C@@H](c1ccc(-c2cccnc2)cc1)N1CC[C@](CCCO)(c2ccc(F)cc2)OC1=O [EXAMPLE 197, (R)-6-(4-fluorophenyl)-6-(3-hydroxypropyl)-3-((S)-1-(4-(pyridin-3-yl)phenyl)ethyl)-1,3-oxazinan-2-one]",,,,,4.84
